Laboratory results reported in patent US5550124A, “Use of peripheral-type benzodiazpine sites for treatment of CNS trauma or disease” (priority 1991, dated 1996).

Target: T1, peripheral-type BZ receptors (Rattus norvegicus, UniProt P16257)
T1 construct: displacement of ^3 H-RO5-4864 in brain homogenates; from tissue; host or cells: brain homogenates
Assay: Competitive binding assay, displacement of 3H-Ro5-4864 in brain homogenates
Source text: Sprengel, R., et al., "Molecular cloning and expression of cDNA encoding a peripheral-type benzodiazepine receptor," J. Biol. Chem., 264:20415-20421 (1989).
Some of these compounds were further tested in in vivo studies.

Structure (SMILES) | binding affinity to peripheral-type BZ sites (in words)
O=C1CN=C(c2ccccc2Cl)c2cc([N+](=O)[O-])ccc2N1 [Clonazepam] | very high IC50 values
CC(C)(C)OC(=O)c1ncn2c1[C@@H]1CCCN1C(=O)c1c(Br)cccc1-2 [Rol6-6028] | very high IC50 values
